According to ChEMBL document CHEMBL4808168, “The Discovery of Two Novel Classes of 5,5-Bicyclic Nucleoside-Derived PRMT5 Inhibitors for the Treatment of Cancer” (J Med Chem, 2021):

Experiments:
[1] = Selectivity for PRMT1 (unknown origin) over PRMT5 (unknown origin)
[2] = Selectivity for PRMT3 (unknown origin) over PRMT5 (unknown origin)
[3] = Selectivity for PRMT4 (unknown origin) over PRMT5 (unknown origin)
[4] = Selectivity for PRMT6 (unknown origin) over PRMT5 (unknown origin)
[5] = Selectivity for PRMT7 (unknown origin) over PRMT5 (unknown origin)
[6] = Selectivity for PRMT8 (unknown origin) over PRMT5 (unknown origin)

Selectivity ratio [1]: > 4000 | Selectivity ratio [2]: > 4000 | Selectivity ratio [3]: > 4000 | Selectivity ratio [4]: > 4000 | Selectivity ratio [5]: > 4000 | Selectivity ratio [6]: > 4000
SMILES: Cc1ncnc2c1ccn2[C@@H]1O[C@@H]2[C@@H](Oc3ccc4cc(Br)c(N)nc4c3)CC[C@]2(O)[C@H]1O
